Data from patent US5109111A, “CRF antagonists” (The Salk Institute for Biological Studies, priority 1990, dated 1992).

Test system: secretion of ACTH stimulated by oCRF in cultured rat pituitary cells
Test: Blocking of oCRF-stimulated ACTH and β-endorphin secretion by cultured rat pituitary cells
Assay type: cell-based
Conditions: result in words
Method: The effectiveness of synthetic CRF antagonists to block the secretion of ACTH and β-endorphin by cultured rat pituitary cells is measured using the procedure as generally set forth in Vale et al., Endocrinology, 91, 562 (1972).

Q: `CCCC[C@H](NC(=O)[C@H](CC(C)C)NC(=O)[C@H](CCCCN)NC(=O)[C@H](CCCNC(=N)N)NC(=O)[C@H](CC(N)=O)NC(=O)[C@H](CO)NC(=O)[C@H](Cc1c[nH]cn1)NC(=O)[C@H](C)NC(=O)[C@H](CCC(N)=O)NC(=O)[C@H](CCC(N)=O)NC(=O)[C@H](C)NC(=O)[C@H](CC(C)C)NC(=O)[C@H](CCC(N)=O)NC(=O)[C@H](CC(=O)O)NC(=O)[C@H](C)NC(=O)[C@H](CCCCN)NC(=O)[C@@H](NC(=O)[C@H](CCCC)NC(=O)[C@H](CCC(=O)O)NC(=O)[C@H](CC(C)C)NC(=O)[C@@H](NC(=O)[C@H](CCC(=O)O)NC(=O)[C@H](CCCNC(=N)N)NC(=O)[C@H](CC(C)C)NC(=O)[C@H](CC(C)C)NC(=O)[C@H](Cc1c[nH]cn1)NC(=O)[C@H](N)Cc1ccccc1)C(C)C)[C@@H](C)O)C(=O)N[C@@H](CC(=O)O)C(=O)N[C@H](C(=O)N[C@@H](C)C(N)=O)[C@@H](C)CC` [XXXVI, [D-Phe^12, Nle^21,38]-oCRF(12-41)] was tested. Which “inhibition of the secretion of ACTH and β-END-LI” value did it give?
A: inhibits the secretion of ACTH and β-END-LI

Q: How did the “inhibition of the secretion of ACTH and β-END-LI” value turn out when `CCCC[C@H](NC(=O)[C@H](CC(C)C)NC(=O)[C@H](CCCNC(=N)N)NC(=O)[C@H](CCCNC(=N)N)NC(=O)[C@H](CC(N)=O)NC(=O)[C@H](CO)NC(=O)[C@H](Cc1c[nH]cn1)NC(=O)[C@H](C)NC(=O)[C@H](CCC(N)=O)NC(=O)[C@H](CCC(N)=O)NC(=O)[C@H](C)NC(=O)[C@H](CC(C)C)NC(=O)[C@H](CCC(N)=O)NC(=O)[C@H](CC(=O)O)NC(=O)[C@H](C)NC(=O)[C@H](CCCCN)NC(=O)[C@@H](NC(=O)[C@H](CCCC)NC(=O)[C@H](CCC(=O)O)NC(=O)[C@H](CC(C)C)NC(=O)[C@@H](NC(=O)[C@H](CCC(=O)O)NC(=O)[C@H](CCCNC(=N)N)NC(=O)[C@H](CC(C)C)NC(=O)[C@H](CC(C)C)NC(=O)[C@H](Cc1c[nH]cn1)NC(=O)[C@H](N)Cc1ccccc1)C(C)C)[C@@H](C)O)C(=O)N[C@@H](CC(=O)O)C(=O)N[C@H](C(=O)N[C@@H](C)C(N)=O)[C@@H](C)CC` [XXXVII, [D-Phe^12, Nle^21,38, Arg^36]-oCRF (12-41)] was run?
A: inhibits the secretion of ACTH and β-END-LI
